Experimental data reported in ChEMBL document CHEMBL5365487, “Development of 18F-Labeled PET Tracer Candidates for Imaging of the Abelson Non-receptor Tyrosine Kinase in Parkinson's Disease” (J Med Chem, 2023).
pIC50: −log10 of the molar value.

The chains behind the UniProt entries cited, without tags or fusion partners.
UniProt P00519, whole entry: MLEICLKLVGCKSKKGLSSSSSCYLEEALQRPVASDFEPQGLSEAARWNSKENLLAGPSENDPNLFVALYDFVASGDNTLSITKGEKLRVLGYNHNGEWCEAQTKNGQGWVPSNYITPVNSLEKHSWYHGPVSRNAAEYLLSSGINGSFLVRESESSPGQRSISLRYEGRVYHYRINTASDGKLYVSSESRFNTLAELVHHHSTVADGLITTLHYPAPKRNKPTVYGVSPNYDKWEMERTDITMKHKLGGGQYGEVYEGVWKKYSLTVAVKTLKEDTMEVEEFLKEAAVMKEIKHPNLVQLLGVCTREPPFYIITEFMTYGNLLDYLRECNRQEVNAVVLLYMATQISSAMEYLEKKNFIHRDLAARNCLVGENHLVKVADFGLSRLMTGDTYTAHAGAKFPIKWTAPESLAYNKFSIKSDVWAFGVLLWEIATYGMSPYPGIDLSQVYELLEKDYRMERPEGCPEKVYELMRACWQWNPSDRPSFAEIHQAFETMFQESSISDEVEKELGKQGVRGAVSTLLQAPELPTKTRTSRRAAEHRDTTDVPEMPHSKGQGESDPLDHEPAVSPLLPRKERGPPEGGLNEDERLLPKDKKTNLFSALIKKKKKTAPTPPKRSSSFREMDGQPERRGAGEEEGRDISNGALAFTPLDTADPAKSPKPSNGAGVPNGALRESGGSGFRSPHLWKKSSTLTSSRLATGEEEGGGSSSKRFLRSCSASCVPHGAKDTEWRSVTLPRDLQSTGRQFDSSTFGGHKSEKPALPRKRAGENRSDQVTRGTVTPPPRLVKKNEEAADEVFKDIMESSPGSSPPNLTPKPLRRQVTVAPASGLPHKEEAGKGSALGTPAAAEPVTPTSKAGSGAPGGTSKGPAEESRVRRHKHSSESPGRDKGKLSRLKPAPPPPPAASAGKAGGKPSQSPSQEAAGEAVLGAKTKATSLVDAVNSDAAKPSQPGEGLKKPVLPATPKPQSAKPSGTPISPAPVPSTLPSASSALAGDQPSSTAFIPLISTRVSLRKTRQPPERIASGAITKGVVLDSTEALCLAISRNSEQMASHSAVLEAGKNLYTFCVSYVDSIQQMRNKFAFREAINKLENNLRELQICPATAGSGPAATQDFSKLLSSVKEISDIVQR

Target: Tyrosine-protein kinase ABL1 (Homo sapiens, UniProt P00519)
Assay: Inhibition of His-tagged recombinant human c-Abl/ABL measured after 30 mins by ADP-GloTM assay

pIC50: 7.84
Compound: Cc1cc(F)ncc1-c1ccc2nc(NC(=O)[C@@H]3C[C@@H]3F)sc2c1
